Experimental data published in ChEMBL document CHEMBL1150771, “Synthesis and potency of novel uracil nucleotides and derivatives as P2Y2 and P2Y6 receptor agonists” (Bioorg Med Chem, 2008).

Chains of the proteins cited; added tags and fusions are not shown. Lines headed by an entry give the natural chain unless they say otherwise; changes in a name come on top.
UniProt Q15077, whole entry, looked up: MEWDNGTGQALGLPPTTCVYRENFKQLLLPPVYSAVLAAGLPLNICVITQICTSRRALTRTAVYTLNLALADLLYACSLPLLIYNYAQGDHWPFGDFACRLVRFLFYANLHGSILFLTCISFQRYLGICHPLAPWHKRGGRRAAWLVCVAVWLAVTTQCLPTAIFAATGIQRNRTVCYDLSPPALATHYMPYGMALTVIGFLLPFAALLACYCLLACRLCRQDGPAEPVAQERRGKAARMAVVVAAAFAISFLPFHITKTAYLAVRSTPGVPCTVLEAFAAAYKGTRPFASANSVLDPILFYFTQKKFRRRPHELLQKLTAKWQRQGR
UniProt P41231, whole entry, looked up: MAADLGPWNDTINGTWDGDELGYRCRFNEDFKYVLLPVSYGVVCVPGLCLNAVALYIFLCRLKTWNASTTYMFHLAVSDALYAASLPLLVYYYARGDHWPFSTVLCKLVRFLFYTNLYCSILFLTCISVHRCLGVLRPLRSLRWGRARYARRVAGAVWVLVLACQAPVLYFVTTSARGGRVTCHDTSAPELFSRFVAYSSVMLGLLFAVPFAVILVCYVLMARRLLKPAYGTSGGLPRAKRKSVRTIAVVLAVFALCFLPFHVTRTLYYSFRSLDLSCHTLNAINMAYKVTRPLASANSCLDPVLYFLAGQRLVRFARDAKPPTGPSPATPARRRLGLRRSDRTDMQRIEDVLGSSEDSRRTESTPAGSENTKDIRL
UniProt P51582, whole entry, looked up: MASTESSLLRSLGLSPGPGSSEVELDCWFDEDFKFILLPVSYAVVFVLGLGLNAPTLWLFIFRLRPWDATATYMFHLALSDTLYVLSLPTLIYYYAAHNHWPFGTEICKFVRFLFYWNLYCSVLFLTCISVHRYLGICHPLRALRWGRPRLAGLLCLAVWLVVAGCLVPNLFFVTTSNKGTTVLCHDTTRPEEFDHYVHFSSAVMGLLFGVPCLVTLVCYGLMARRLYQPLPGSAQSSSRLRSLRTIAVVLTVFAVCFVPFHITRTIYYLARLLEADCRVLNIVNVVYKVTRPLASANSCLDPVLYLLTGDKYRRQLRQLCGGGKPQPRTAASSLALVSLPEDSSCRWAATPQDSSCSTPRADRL

How the values were obtained:
Settings in all cases: 1321-n1
P2Y purinoceptor 6 = P2Y purinoceptor 6 (Homo sapiens, UniProt Q15077)
P2Y purinoceptor 2 = P2Y purinoceptor 2 (Homo sapiens, UniProt P41231)
P2Y purinoceptor 4 = P2Y purinoceptor 4 (Homo sapiens, UniProt P51582)

CP(=O)(O)OP(=O)(O)OP(=O)(O)OP(=O)(O)OC[C@H]1O[C@@H](n2ccc(=O)[nH]c2=O)[C@H](O)[C@@H]1O
EC50 (P2Y purinoceptor 6): 8.16 µM
EC50 (P2Y purinoceptor 2): 4.18 µM
EC50 (P2Y purinoceptor 4): 2.53 µM
